The text below walks through data of paper PMC10815238, “New N-Terminal Fatty-Acid-Modified Melittin Analogs with Potent Biological Activity” (International Journal of Molecular Sciences, 2024).

For test [1], the system named is Escherichia coli (E. coli) ATCC 25922. In kind it is cell-based. Particulars: NB medium, 37 °C, 18 h, three independent measurements. The protocol:
(§1) MIC was determined using the broth microdilution method with minor modification. In brief, bacteria (S. aureus ATCC 43300, E. faecalis ATCC 29212, E. coli ATCC 25922, P. aeruginosa ATCC 27853, L. monocytogenes CVCC 3764, B. cereus CVCC 4101, S. Castellani CGMCC 1.1869, and the multidrug-resistant E. coli strain) were cultured in nutrient broth (NB) medium (Macklin, Shanghai, China) to the logarithmic phase and diluted to 1 × 10^6 colony forming units (CFUs)/mL. The MDLs were dissolved to a final concentration of 256~0.25 μg/mL in NB medium using two-fold dilutions. A total of 50 μL of different concentrations of the MDL solutions and an equal volume of bacterial suspension were added to a 96-well plate, which was then incubated at 37 °C for 18 h. The minimum concentrations of the MDLs with no visible growth of bacteria were defined as the corresponding MICs. Media containing bacteria without the MDLs were set as the negative control. Each measurement was performed independently three times.

For test [2], the system named is Staphylococcus aureus (S. aureus) ATCC 43300. The class given is cell-based. To be noted: NB medium, 37 °C, 18 h, three independent measurements. The protocol: as §1

Broadly, the MIC is the least concentration at which growth counts as inhibited. A higher MIC goes with a less susceptible organism.

Converted amounts (≈) assume the structure as drawn.

`CC[C@H](C)[C@H](NC(=O)CN)C(=O)NCC(=O)N[C@@H](C)C(=O)N[C@H](C(=O)N[C@@H](CC(C)C)C(=O)N[C@@H](CCCCN)C(=O)N[C@H](C(=O)N[C@@H](CC(C)C)C(=O)N[C@H](C(=O)N[C@H](C(=O)NCC(=O)N[C@@H](CC(C)C)C(=O)N1CCC[C@H]1C(=O)N[C@@H](C)C(=O)N[C@@H](CC(C)C)C(=O)N[C@H](C(=O)N[C@@H](CO)C(=O)N[C@@H](Cc1c[nH]c2ccccc12)C(=O)N[C@H](C(=O)N[C@@H](CCCCN)C(=O)N[C@@H](CCCNC(=N)N)C(=O)N[C@@H](CCCCN)C(=O)N[C@@H](CCCNC(=N)N)C(=O)N[C@@H](CCC(N)=O)C(=O)N[C@@H](CCC(N)=O)C(N)=O)[C@@H](C)CC)[C@@H](C)CC)[C@@H](C)O)[C@@H](C)O)C(C)C)C(C)C` [Mel, Melittin]: the minimum inhibitory concentration (MIC) in test [1] amounted to 32 µg/mL (≈ 11.2 µM); in test [2], 8 µg/mL (≈ 2.81 µM).
